Experimental data reported in patent US20020187514A1 (priority 1999, published 2002).

Sequences of proteins named here, by UniProt entry; tags and fusion partners are left off.
UniProt P30989, whole entry: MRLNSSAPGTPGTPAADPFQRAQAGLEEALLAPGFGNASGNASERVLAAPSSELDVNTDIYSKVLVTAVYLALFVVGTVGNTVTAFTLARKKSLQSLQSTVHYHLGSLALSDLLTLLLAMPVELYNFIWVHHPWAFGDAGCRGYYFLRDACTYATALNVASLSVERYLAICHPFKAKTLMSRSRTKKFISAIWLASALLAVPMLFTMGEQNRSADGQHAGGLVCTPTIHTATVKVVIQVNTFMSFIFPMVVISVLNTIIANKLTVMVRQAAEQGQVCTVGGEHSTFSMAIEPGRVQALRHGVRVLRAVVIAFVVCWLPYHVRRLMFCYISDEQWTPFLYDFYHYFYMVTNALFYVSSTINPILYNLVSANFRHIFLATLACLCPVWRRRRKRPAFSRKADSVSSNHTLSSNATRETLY
UniProt P30560, whole entry: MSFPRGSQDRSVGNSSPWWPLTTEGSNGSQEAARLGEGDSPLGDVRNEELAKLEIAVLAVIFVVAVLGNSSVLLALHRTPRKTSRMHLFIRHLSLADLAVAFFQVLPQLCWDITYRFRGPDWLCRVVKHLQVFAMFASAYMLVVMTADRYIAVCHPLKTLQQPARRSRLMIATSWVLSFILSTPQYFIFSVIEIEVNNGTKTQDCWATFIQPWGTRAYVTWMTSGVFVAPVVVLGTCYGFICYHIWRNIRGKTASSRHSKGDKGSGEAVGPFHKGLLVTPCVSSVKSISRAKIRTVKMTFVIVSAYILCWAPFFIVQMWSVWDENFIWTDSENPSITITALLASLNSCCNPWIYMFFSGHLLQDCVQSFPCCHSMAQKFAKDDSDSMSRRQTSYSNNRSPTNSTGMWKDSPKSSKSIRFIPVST
UniProt P25929, whole entry: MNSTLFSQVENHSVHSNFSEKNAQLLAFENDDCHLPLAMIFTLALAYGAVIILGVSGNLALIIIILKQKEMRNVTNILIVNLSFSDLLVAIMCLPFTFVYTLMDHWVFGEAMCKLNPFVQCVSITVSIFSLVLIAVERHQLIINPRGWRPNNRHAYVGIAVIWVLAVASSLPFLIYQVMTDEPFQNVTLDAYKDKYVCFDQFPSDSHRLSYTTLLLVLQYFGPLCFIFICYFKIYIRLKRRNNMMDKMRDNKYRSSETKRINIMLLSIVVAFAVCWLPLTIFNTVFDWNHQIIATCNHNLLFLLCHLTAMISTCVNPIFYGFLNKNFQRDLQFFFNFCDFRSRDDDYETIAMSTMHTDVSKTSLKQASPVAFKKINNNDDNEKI

How the values were obtained:
Assay type in all cases: binding
Settings in all cases: read-out: Ref Kj
Neurotensin = biological target: T1, Neurotensin (Homo sapiens, UniProt P30989)
T1 construct: expressed in transfected cells

Vasopressin 1 = biological target: T2, Vasopressin 1 (Rattus norvegicus, UniProt P30560)
T2 construct: no other source notation after assay name denotes animal cell or animal tissue source; from tissue

Neuropeptide, NPY1 = Neuropeptide, NPY1 (Homo sapiens, UniProt P25929); experiment: Neuropeptide, NPY1 (Human); [125I]PYY

Acetyl-NT (8-13) was tested, and the Ki (Neurotensin) was 0.34 nM.

For “Arg8-Vasopressin [Arg8-Vasopressin (AVP)]”, the Ki (Vasopressin 1) was 0.998 nM.

For NPY (porcine), the Ki (Neuropeptide, NPY1) was 3.45 nM.
